IC50 data for 1 substance are collected here from patent US20090088457A1, “Primary Amines as Renin Inhibitors” (Actelion Pharmaceuticals, Ltd., priority 2006, published 2009).

Amino acid sequences for entries named in this document (tags omitted). Residues count along the entry.
UniProt P00797, 67-406: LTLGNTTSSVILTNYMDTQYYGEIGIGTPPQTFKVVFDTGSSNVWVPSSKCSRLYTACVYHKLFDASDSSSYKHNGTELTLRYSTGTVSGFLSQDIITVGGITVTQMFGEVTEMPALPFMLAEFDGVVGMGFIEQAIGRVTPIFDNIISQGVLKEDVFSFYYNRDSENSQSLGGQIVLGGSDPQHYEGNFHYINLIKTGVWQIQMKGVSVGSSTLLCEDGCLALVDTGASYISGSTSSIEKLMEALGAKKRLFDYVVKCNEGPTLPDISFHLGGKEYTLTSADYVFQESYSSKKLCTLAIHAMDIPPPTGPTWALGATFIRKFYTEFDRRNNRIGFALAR

For the assay, the target named is recombinant human renin (Homo sapiens, UniProt P00797). Briefly: Primary renin inhibition assay: IC50 in buffer, 384 well MTP (AngI quantified by EIA). It is filed as biochemical. The following applies: human tetradecapeptide substrate, 37° C. for 3 h. How it is done:
1. Enzyme Immuno Assay (EIA) to Estimate AngI Accumulation and Renin Inhibition
1.1 Preparation of AngI-BSA Conjugate
1.3 mg (1 μmol) of AngI [1-10 (Bachem, H-1680)] and 17 mg (0.26 μmol) of BSA (Fluka, 05475) were dissolved in 4 mL of 0.1M phosphate buffer, pH 7.4, after which 2 mL of a 1:100 dilution of glutaraldehyde in H2O (Sigma G-5882) was added dropwise. The mixture was incubated overnight at 4° C., then dialyzed against 2 liters of 0.9% NaCl, twice for 4 h at rt, followed by dialysis against 2 liters of PBS 1× overnight at rt. The solution was then filtered with a Syringe filter, 0.45 μm (Nalgene, Cat. No. 194-2545). The conjugate can be stored in polypropylene tubes in 0.05% sodium azide at 4° C. for at least 12 months.
1.2 Preparation of BSA-AngI Coated MTP […]
The renin assay was adapted from an assay described before (Fischli W. et al., Hypertension, 1991, 18:22-31) and consists of two steps: in the first step, recombinant human renin is incubated with its substrate (commercial human tetradecapeptide renin substrate) to create the product Angiotensin I (AngI). In the second step, the accumulated AngI is measured by an immunological assay (enzyme immuno assay, EIA). […]

For the substance “(rac.)-(R*)-3-Amino-N-cyclopropyl-2-(2-{2-[2,6-dichloro-4-((R*)-1-hydroxy-ethyl)-phenoxy]-ethoxy}-thiazol-5-ylmethyl)-N-(2,3-dimethyl-benzyl)-propionamide and (rac.)-(R*)-3-amino-N-cyclopropyl-2-(2-{2-[2,6-dichloro-4-((S*)-1-hydroxy-ethyl)-phenoxy]-ethoxy}-thiazol-5-ylmethyl)-N-(2,3-dimethyl-benzyl)-propionamide [Example 6]”, the IC50 (as a rule, the concentration that gives 50% inhibition) was 8.1 nM.
